This note sets out measurements from patent US12583836B2 (Anaxis Pharma Pty Ltd, priority 2020, dated 2026).

The chains behind the UniProt entries cited, without tags or fusion partners. Where a name states a change or a piece, a line headed by the entry shows the natural chain unless it says otherwise.
UniProt Q9Y572: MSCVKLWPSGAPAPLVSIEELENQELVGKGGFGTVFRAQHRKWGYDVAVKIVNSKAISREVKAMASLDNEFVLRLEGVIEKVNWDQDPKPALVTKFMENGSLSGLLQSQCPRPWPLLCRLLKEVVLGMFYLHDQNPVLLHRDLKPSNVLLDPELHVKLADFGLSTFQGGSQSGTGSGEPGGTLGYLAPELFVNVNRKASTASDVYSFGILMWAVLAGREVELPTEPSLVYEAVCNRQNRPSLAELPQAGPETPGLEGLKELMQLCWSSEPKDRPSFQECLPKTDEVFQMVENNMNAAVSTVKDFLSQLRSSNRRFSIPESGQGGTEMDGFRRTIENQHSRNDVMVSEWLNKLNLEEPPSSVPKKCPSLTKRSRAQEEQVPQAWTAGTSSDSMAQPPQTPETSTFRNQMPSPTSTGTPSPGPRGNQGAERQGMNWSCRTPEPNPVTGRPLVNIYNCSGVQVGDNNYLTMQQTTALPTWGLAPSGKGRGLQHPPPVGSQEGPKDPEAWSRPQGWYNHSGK

Common to all, as to conditions: equilibrium dissociation constant, class symbols
In one experiment the target is T1, MLKL (full length) (Homo sapiens, UniProt Q8NB16).
T1 construct: purchased DiscoverX (KINOMEscan service); host or cells: E. coli BL21-derived (T7 phage) or HEK293
T1 sequence (Q8NB16 1-471): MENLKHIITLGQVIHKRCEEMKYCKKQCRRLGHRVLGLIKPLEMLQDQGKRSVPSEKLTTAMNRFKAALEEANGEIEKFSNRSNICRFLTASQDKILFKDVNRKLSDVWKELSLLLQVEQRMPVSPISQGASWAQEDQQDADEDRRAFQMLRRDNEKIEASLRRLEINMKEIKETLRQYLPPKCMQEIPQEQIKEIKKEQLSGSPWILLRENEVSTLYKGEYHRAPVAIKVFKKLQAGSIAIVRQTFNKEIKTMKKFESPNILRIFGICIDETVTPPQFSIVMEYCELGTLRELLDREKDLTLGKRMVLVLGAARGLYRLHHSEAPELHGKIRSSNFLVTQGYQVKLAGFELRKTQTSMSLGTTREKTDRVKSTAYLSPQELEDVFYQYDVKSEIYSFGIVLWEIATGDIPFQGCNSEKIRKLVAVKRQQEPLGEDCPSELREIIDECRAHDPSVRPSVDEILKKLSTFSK
Briefly: KINOMEscan binding assay, MLKL.

The target in the next experiment is T2, RIP3 (Homo sapiens, UniProt Q9Y572).
T2 construct: purchased DiscoverX (KINOMEscan service); host or cells: E. coli BL21-derived (T7 phage) or HEK293
Put plainly: KINOMEscan binding assay, RIP3.

For the next experiment, the target named is T3, RIP1 (Homo sapiens, UniProt Q13546).
T3 construct: purchased DiscoverX (KINOMEscan service); host or cells: E. coli BL21-derived (T7 phage) or HEK293
T3 sequence (Q13546 1-671): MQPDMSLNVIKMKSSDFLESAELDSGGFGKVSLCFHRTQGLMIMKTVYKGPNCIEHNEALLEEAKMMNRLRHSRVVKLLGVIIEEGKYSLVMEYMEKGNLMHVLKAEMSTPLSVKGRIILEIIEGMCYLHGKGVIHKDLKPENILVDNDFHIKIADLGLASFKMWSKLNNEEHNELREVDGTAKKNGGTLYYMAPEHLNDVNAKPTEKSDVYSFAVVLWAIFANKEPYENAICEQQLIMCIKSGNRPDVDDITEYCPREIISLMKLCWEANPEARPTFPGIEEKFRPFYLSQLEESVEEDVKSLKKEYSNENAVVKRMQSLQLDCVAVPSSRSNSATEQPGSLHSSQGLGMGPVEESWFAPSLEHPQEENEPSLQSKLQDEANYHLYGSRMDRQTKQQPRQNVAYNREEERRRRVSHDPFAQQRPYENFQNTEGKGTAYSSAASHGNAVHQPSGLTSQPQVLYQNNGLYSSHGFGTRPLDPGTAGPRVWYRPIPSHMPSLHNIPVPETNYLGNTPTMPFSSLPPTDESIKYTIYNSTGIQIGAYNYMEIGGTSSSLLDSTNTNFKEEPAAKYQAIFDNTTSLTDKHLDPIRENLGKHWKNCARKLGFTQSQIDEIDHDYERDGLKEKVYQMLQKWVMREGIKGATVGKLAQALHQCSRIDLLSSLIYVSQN
Briefly: KINOMEscan binding assay, RIP1.

On to `C[C@H](Oc1cc(-c2n[nH]c(Nc3cc(C(F)(F)F)n(C)n3)c2C(N)=O)ccc1NS(=O)(=O)C(F)F)c1ccc(F)cc1` [Compound 277, (S)-3-(4-((difluoromethyl)sulfonamido)-3-(1-(4-fluorophenyl)ethoxy)phenyl)-5-((1-methyl-5-(trifluoromethyl)-1H-pyrazol-3-yl)amino)-1H-pyrazole-4-carboxamide], for which the Kd (commonly the equilibrium constant for the complex coming apart) is below 0.01 µM on MLKL (full length), above 30 µM on RIP3 and above 30 µM at RIP1.

Turning to `C[C@H](Oc1cc(-c2n[nH]c(Nc3ccc(C4CCOCC4)cn3)c2C(N)=O)ccc1NS(=O)(=O)C(F)F)c1ccc(F)cc1` [Compound 278, (S)-3-(4-((difluoromethyl)sulfonamido)-3-(1-(4-fluorophenyl)ethoxy)phenyl)-5-((5-(tetrahydro-2H-pyran-4-yl)pyridin-2-yl)amino)-1H-pyrazole-4-carboxamide], the dissociation constant (Kd) at MLKL (full length) is below 0.01 µM; at RIP3 it was above 30 µM; at RIP1 it was above 30 µM.

As for `C[C@H](Oc1cc(-c2n[nH]c(Nc3cc(C4CCC4)on3)c2C(N)=O)ccc1NS(=O)(=O)C(F)F)c1ccc(F)cc1` [Compound 281, (S)-5-((5-cyclobutylisoxazol-3-yl)amino)-3-(4-((difluoromethyl)sulfonamido)-3-(1-(4-fluorophenyl)ethoxy)phenyl)-1H-pyrazole-4-carboxamide], the Kd on MLKL (full length) was below 0.01 µM; at RIP3, above 30 µM; at RIP1, above 30 µM.

Take `C[C@H](Oc1cc(-c2n[nH]c(Nc3ncn(C)n3)c2C(N)=O)ccc1NS(=O)(=O)C(F)F)c1ccc(F)cc1` [Compound 283, (S)-3-(4-((difluoromethyl)sulfonamido)-3-(1-(4-fluorophenyl)ethoxy)phenyl)-5-((1-methyl-1H-1,2,4-triazol-3-yl)amino)-1H-pyrazole-4-carboxamide]: the Kd was below 0.01 µM on MLKL (full length), above 30 µM on RIP3 and above 30 µM on RIP1.

As to `Cc1nc(Nc2[nH]nc(-c3ccc(NS(=O)(=O)C(F)F)c(O[C@@H](C)c4ccc(F)cc4)c3)c2C(N)=O)sc1C` [Compound 284, (S)-3-(4-((difluoromethyl)sulfonamido)-3-(1-(4-fluorophenyl)ethoxy)phenyl)-5-((4,5-dimethylthiazol-2-yl)amino)-1H-pyrazole-4-carboxamide], the Kd at MLKL (full length) was below 0.01 µM; on RIP3 it was above 30 µM; on RIP1, above 30 µM.

In the case of `Cc1cn(C)nc1Nc1[nH]nc(-c2ccc(NS(=O)(=O)C(F)F)c(O[C@@H](C)c3ccc(F)cc3)c2)c1C(N)=O` [Compound 286], the results for the Kd at MLKL (full length), at RIP3 and at RIP1 were below 0.01 µM, above 30 µM and above 30 µM, respectively.

Take `C[C@H](Oc1cc(-c2n[nH]c(Nc3cc(C4CCOCC4)ccn3)c2C(N)=O)ccc1NS(=O)(=O)C(F)F)c1ccc(F)cc1` [Compound 287, (S)-3-(4-((difluoromethyl)sulfonamido)-3-(1-(4-fluorophenyl)ethoxy)phenyl)-5-((4-(tetrahydro-2H-pyran-4-yl)pyridin-2-yl)amino)-1H-pyrazole-4-carboxamide]: the Kd was below 0.01 µM on MLKL (full length), above 30 µM on RIP3 and above 30 µM on RIP1.

In the case of `COCC(C)(C)c1cc(Nc2[nH]nc(-c3ccc(NS(=O)(=O)C(F)F)c(O[C@@H](C)c4ccc(F)cc4)c3)c2C(N)=O)no1` [Compound 288, (S)-3-(4-((difluoromethyl)sulfonamido)-3-(1-(4-fluorophenyl)ethoxy)phenyl)-5-((5-(1-methoxy-2-methylpropan-2-yl)isoxazol-3-yl)amino)-1H-pyrazole-4-carboxamide], the Kd was below 0.01 µM on MLKL (full length), above 30 µM on RIP3 and above 30 µM on RIP1.

In the case of `C[C@H](Oc1cc(-c2n[nH]c(Nc3cc(C4(C(F)(F)F)CC4)on3)c2C(N)=O)ccc1NS(=O)(=O)C(F)F)c1ccc(F)cc1` [Compound 289, (S)-3-(4-((difluoromethyl)sulfonamido)-3-(1-(4-fluorophenyl)ethoxy)phenyl)-5-((5-(1-(trifluoromethyl)cyclopropyl)isoxazol-3-yl)amino)-1H-pyrazole-4-carboxamide], the Kd on MLKL (full length) is below 0.01 µM; at RIP3, above 30 µM; at RIP1 it was above 30 µM.

On to `Cc1cnc(Nc2[nH]nc(-c3ccc(NS(=O)(=O)C(F)F)c(OC4(c5ccc(F)cc5)CC4)c3)c2C(N)=O)cn1` [Compound 290, 3-(4-((difluoromethyl)sulfonamido)-3-(1-(4-fluorophenyl)cyclopropoxy)phenyl)-5-((5-methylpyrazin-2-yl)amino)-1H-pyrazole-4-carboxamide], for which the Kd at MLKL (full length) was below 0.01 µM; on RIP3 it was above 30 µM; on RIP1 it was above 30 µM.

Take `C[C@H](Oc1cc(-c2n[nH]c(Nc3cc(C4(C)COC4)on3)c2C(N)=O)ccc1NS(=O)(=O)C(F)F)c1ccc(F)cc1` [Compound 292, (S)-3-(4-((difluoromethyl)sulfonamido)-3-(1-(4-fluorophenyl)ethoxy)phenyl)-5-((5-(3-methyloxetan-3-yl)isoxazol-3-yl)amino)-1H-pyrazole-4-carboxamide]: the Kd at MLKL (full length) was below 0.01 µM; at RIP3 it was above 30 µM; on RIP1 it was above 30 µM.

Regarding `COc1cc(Nc2[nH]nc(-c3ccc(NS(=O)(=O)C(F)F)c(O[C@@H](C)c4ccc(F)cc4)c3)c2C(N)=O)nn1C` [Compound 294, (S)-3-(4-((difluoromethyl)sulfonamido)-3-(1-(4-fluorophenyl)ethoxy)phenyl)-5-((5-methoxy-1-methyl-1H-pyrazol-3-yl)amino)-1H-pyrazole-4-carboxamide], the Kd is below 0.01 µM on MLKL (full length), above 30 µM at RIP3 and above 30 µM at RIP1.

With `C[C@H](Oc1cc(-c2n[nH]c(Nc3cc(C(C)(C)C)no3)c2C(N)=O)ccc1NS(=O)(=O)C(F)F)c1ccc(F)cc1` [Compound 295, (S)-5-((3-(tert-butyl)isoxazol-5-yl)amino)-3-(4-((difluoromethyl)sulfonamido)-3-(1-(4-fluorophenyl)ethoxy)phenyl)-1H-pyrazole-4-carboxamide], the Kd was below 0.01 µM at MLKL (full length), above 30 µM on RIP3 and above 30 µM on RIP1.

Take `C[C@H](Oc1cc(-c2n[nH]c(Nc3cnc(C4CCOCC4)cn3)c2C(N)=O)ccc1NS(=O)(=O)C(F)F)c1ccc(F)cc1` [Compound 296, (S)-3-(4-((difluoromethyl)sulfonamido)-3-(1-(4-fluorophenyl)ethoxy)phenyl)-5-((5-(tetrahydro-2H-pyran-4-yl)pyrazin-2-yl)amino)-1H-pyrazole-4-carboxamide]: the figures for the dissociation constant Kd at MLKL (full length), on RIP3 and on RIP1 were below 0.01 µM, above 30 µM and above 30 µM, respectively.

For the compound `Cc1cc(Nc2[nH]nc(-c3ccc(NS(=O)(=O)C(F)F)c(O[C@@H](C)c4ccc(F)cc4)c3)c2C(N)=O)on1` [Compound 302, (S)-3-(4-((difluoromethyl)sulfonamido)-3-(1-(4-fluorophenyl)ethoxy)phenyl)-5-((3-methylisoxazol-5-yl)amino)-1H-pyrazole-4-carboxamide], the Kd on MLKL (full length) is below 0.01 µM; on RIP3 it was above 30 µM; on RIP1, above 30 µM.

Regarding `C[C@H](Oc1cc(-c2n[nH]c(Nc3cc(C4CCOC4)on3)c2C(N)=O)ccc1NS(=O)(=O)C(F)F)c1ccc(F)cc1` (stereo partly drawn) [Compound 305, 3-(4-((difluoromethyl)sulfonamido)-3-((S)-1-(4-fluorophenyl)ethoxy)phenyl)-5-((5-(tetrahydrofuran-3-yl)isoxazol-3-yl)amino)-1H-pyrazole-4-carboxamide], the results for the dissociation constant Kd on MLKL (full length), at RIP3 and at RIP1 were below 0.01 µM, above 30 µM and above 30 µM, respectively.

With `NC(=O)c1c(-c2ccc(NS(=O)(=O)C(F)F)c(OC3(c4ccc(F)cc4)CC3)c2)n[nH]c1Nc1cnccn1` [Compound 307, 3-(4-((difluoromethyl)sulfonamido)-3-(1-(4-fluorophenyl)cyclopropoxy)phenyl)-5-(pyrazin-2-ylamino)-1H-pyrazole-4-carboxamide], the Kd on MLKL (full length) was below 0.01 µM; at RIP3, above 30 µM; on RIP1 it was above 30 µM.
